Measured values from US8530525B2 (priority 2009, dated 2013).

Test system: mice
Test: Minimal neurotoxicity, Rotarod test in mice (ASP, NINDS)
Assay type: in vivo

With “(1S,2E,4S,6R,7E,11E)-cembra-2,7,11-triene-4,6-diol” the “Toxicity in mice compared with 4R cembranoid” value (i.p.) was “somewhat more toxic than 4R cembranoid”, the “Rotarod toxicity, number of animals failing the test over the number tested” value (“Rotarod toxicity … over the number tested” below) (i.p. 30 mg/kg, 0.5 h after injection) was 0/4 and the “Rotarod toxicity … over the number tested” value (i.p. 30 mg/kg, 4.0 h after injection) was 0/2. For the same substance, the “Rotarod toxicity … over the number tested” value (i.p. 100 mg/kg, 0.5 h after injection, listed as 4S, 100 mg/kg) was 1/8, the “Rotarod toxicity … over the number tested” value (i.p. 100 mg/kg, 4.0 h after injection) was 0/4 and the “Rotarod toxicity … over the number tested” value (i.p. 300 mg/kg, 0.5 h after injection, listed as 4S, 300 mg/kg) was 3 of 4 and 3/4. For the same substance, the “Rotarod toxicity … over the number tested” value (i.p. 300 mg/kg, 4.0 h after injection) was 1/2.

Several values for one entry are separate records, joined by “and”; a condition that tells them apart may be missing. Equal values may be shown once.
